From US20260285875A1, “INHIBITORS OF PARG” (858 Therapeutics, Inc., priority 2023, published 2026)

Sequences of proteins named here, by UniProt entry; tags and fusion partners are left off.
UniProt Q86W56, whole entry: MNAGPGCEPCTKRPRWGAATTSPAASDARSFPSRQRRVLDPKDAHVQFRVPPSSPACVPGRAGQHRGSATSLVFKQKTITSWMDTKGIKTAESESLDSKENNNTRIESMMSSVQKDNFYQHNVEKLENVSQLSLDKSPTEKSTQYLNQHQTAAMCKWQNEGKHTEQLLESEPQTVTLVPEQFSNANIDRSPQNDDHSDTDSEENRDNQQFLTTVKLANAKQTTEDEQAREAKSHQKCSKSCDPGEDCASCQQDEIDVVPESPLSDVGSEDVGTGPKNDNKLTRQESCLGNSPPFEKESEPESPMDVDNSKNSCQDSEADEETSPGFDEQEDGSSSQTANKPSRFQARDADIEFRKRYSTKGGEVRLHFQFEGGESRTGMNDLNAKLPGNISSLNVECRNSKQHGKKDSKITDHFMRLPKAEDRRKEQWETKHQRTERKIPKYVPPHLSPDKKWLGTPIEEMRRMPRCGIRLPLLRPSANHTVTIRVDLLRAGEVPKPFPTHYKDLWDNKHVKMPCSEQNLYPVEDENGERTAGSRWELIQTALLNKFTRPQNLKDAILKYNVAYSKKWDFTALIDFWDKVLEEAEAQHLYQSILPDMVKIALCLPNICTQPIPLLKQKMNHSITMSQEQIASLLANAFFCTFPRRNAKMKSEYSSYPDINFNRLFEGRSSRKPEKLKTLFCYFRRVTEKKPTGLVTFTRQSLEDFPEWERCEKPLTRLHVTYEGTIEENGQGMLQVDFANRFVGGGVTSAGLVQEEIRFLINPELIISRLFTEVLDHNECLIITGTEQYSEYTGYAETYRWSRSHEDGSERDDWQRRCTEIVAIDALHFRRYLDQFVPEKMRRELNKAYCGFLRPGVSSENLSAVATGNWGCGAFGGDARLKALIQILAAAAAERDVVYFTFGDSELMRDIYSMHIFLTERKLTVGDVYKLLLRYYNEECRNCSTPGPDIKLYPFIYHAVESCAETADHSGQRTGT

Biological target: cellular PARG (Homo sapiens, UniProt Q86W56)
Assay: Nuclear PAR accumulation assay (immunofluorescence high-content imaging, MMS-treated HeLa cells)
Conditions: read-out: PAR Accumulation IC50, 1 hour compound then MMS 50 μg/mL for an additional hour

Row | SMILES | IC50 [nM]
1 | COc1ccc(-c2cc(S(=O)(=O)NC3(C)CC3)cc3c2N2CC(C)(C)N=C2N(C)C3=O)cn1 | 100 to 1000
2 | C[C@@H]1[C@H](CO)N=C2N(Cc3cnn(C)c3)C(=O)c3cc(S(=O)(=O)NC4(C)CC4)ccc3N21 [Example 294, (1R,2R)-2-(hydroxymethyl)-1-methyl-4-((1-methyl-1H-pyrazol-4-yl)methyl)-N-(1-methylcyclopropyl)-5-oxo-1,2,4,5-tetrahydroimidazo[1,2-a]quinazoline-7-sulfonamide] | 100 to 1000
